# Measurements from ChEMBL document CHEMBL5338725, “New Glucosamine-Based TLR4 Agonists: Design, Synthesis, Mechanism of Action, and In Vivo Activity as Vaccine Adjuvants” (J Med Chem, 2023).
# Amino acid sequences for entries named in this document (tags omitted).
# UniProt O00206, whole entry: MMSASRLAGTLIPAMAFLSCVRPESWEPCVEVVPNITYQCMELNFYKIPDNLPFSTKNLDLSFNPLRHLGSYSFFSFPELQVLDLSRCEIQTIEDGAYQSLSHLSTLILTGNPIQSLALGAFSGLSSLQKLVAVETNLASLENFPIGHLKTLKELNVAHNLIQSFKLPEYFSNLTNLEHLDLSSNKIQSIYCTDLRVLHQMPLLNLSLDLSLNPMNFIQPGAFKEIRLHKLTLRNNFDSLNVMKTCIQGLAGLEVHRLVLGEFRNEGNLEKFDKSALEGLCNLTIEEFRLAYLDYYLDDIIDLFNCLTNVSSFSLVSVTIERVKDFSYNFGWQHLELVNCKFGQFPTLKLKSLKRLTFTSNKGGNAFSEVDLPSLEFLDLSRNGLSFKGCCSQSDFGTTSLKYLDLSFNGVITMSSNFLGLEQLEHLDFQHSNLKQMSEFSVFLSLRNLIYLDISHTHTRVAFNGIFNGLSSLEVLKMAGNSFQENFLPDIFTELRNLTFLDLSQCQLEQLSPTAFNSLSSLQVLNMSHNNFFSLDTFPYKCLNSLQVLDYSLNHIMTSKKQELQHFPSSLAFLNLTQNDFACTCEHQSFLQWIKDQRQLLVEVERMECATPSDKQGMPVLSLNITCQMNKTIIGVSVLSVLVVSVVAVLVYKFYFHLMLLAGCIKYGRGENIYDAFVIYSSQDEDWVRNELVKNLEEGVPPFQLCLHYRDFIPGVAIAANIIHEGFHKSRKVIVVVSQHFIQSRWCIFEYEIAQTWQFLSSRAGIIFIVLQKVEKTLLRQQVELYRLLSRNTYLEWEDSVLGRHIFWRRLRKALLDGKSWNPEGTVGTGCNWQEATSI
# Active and inactive are the calls of the source. The calls are words filed in the database; no cut-off is given here.
# How the values were obtained:
# Assay type in all cases: cell-based
# [1] = target: Toll-like receptor 4 (Homo sapiens) (UniProt O00206); test: Agonist activity at TLR4 in human PBMC assessed as induction of TNF production incubated for 6 hrs by ELISA method; details: filed as agonist, dose 10-25 µM
# [2] = target: Toll-like receptor 4 (Homo sapiens) (UniProt O00206); test: Activation of TLR4 in PMA-differentiated human THP1-Xblue cells assessed as induction of IL-6 secretion at 0.1 to 25 uM by incubated for 6 hrs ELISA method; details: dose 0.1-25 µM
# [3] = target: Toll-like receptor 4 (Homo sapiens) (UniProt O00206); test: Activation of TLR4 in PMA-differentiated human THP1-Xblue cells assessed as induction of TNFalpha release at 25 uM incubated for 6 hrs by ELISA method; details: filed as activator
# [4] = target: Toll-like receptor 4 (Homo sapiens) (UniProt O00206); test: Agonist activity at human TLR4 in HEK-Blue hTLR4 cells at 0.1 to 25 uM incubated for 18 hrs by SEAP reporter gene based Quanti-blue assay; details: filed as agonist, dose 0.1-25 µM
# [5] = target: Toll-like receptor 4 (Homo sapiens) (UniProt O00206); test: Agonist activity at TLR4 in human PBMC assessed as induction of IL-1beta production incubated for 6 hrs by ELISA method; details: filed as agonist, dose 10-25 µM
smiles,measurement,setting,value
CCCCCCCCCC(=O)N[C@H]1[C@H](OC(=O)CCCCCCCCC)O[C@H](CO)[C@@H](OP(=O)(O)O)[C@@H]1OC(=O)CCCCCCCCC,Activity,[1],Dose-Dependent Effect
same,Activity,[2],inactive
same,Activity,[3],Active
same,Activity,[4],Active
same,Activity,[5],Dose-Dependent Effect
